In the assay the test system is synovial-like T-cell - macrophage co-cultures. The assay is described as follows: Synovial-like T-cell - macrophage co-cultures from RA patients not responding to TNF blockers, TNFa secretion. Format: cell-based, human. Particulars: Example 20; 30 microg/ml. The source says:
The therapeutic potential of C1ORF32-ECD-FC (SEQ ID #43) for treating RA was studied in co-cultures of activated T cells and macrophages that were modified to mimic the deleterious interaction of these cells in RA synovium. This interaction drives the secretion of pro-inflammatory cytokines that play a major role in the pathology of RA, leading to progressive joint inflammation and to joint destruction. Thus, these co-cultures provide a translational tool to evaluate the effect of potential drugs for treatment of RA (Wenink et al., Ann Rheum Dis 2012; 71:1 80-83).
Purified T cells and myeloid cells from blood of RA patients that fail to respond to treatment with TNF blockers were activated for 6 days with TNFa, IL-6 and IL-15 and co-cultures with Monocytes derived macrophages that were generated by activation of CD14+ monocytes with M-CSF for 6 days.
The effect of C1ORF32-ECD-FC, Abatacept (CTLA4-Ig), control Ig, vehicle or no treatment were tested via evaluation of TNFa secretion. The amounts were administered as follows: FIG. 33: 30microg/ml of each protein; FIG. 34: 3, 10, 30microg/ml of each protein as shown.
A similar method was followed as for Example 20. […] Details of the treatments these patients were receiving and their response to these treatments are depicted in Table 6, showing loss of effect in response to one or more TNF blockers.

Regarding “abatacept: fusion protein of the ECD of CTLA-4 fused to the Fc fragment of hIgG1 [reference compound]”, the “TNFa secretion in one of the donors” value is “no effect”.

Values taken from US20190309044A1, “POLYPEPTIDES AND USES THEREOF AS A DRUG FOR TREATMENT OF AUTOIMMUNE DISORDERS” (Compugen Ltd., priority 2017, published 2019).
